Measured values taken from BindingDB's records for PubMed 11303071 (Banyu Pharmaceutical, 2001).

Amino acid sequences for entries named in this document (tags omitted). A change or cut given only in a name is not applied to a line headed by its entry.
UniProt P11229: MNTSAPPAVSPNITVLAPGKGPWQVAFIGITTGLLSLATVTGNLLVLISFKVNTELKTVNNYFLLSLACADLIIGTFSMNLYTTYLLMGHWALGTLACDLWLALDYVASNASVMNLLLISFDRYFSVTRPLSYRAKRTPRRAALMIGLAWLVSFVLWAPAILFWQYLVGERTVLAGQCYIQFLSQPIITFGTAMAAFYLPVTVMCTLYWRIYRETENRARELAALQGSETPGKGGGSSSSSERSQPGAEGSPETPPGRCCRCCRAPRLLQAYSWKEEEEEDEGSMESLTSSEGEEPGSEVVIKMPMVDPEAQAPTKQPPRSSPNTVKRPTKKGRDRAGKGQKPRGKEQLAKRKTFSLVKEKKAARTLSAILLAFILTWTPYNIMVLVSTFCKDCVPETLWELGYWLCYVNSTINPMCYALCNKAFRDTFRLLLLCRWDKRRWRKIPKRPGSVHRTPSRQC
UniProt P20309, whole entry: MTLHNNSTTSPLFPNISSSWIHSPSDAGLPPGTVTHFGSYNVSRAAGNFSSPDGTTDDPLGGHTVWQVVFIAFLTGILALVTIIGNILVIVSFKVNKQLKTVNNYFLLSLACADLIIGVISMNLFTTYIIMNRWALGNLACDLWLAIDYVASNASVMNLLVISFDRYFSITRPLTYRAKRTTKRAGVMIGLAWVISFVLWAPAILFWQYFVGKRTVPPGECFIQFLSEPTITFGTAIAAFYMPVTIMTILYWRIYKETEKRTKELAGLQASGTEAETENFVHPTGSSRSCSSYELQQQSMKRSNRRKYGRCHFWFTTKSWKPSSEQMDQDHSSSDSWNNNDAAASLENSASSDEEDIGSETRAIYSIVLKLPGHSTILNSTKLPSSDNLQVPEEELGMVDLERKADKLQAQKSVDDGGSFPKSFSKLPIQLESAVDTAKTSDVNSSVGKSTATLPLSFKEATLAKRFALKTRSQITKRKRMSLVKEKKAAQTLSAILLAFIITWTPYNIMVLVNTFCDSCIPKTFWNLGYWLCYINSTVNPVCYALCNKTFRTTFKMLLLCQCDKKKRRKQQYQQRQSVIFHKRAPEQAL
UniProt P08172, whole entry: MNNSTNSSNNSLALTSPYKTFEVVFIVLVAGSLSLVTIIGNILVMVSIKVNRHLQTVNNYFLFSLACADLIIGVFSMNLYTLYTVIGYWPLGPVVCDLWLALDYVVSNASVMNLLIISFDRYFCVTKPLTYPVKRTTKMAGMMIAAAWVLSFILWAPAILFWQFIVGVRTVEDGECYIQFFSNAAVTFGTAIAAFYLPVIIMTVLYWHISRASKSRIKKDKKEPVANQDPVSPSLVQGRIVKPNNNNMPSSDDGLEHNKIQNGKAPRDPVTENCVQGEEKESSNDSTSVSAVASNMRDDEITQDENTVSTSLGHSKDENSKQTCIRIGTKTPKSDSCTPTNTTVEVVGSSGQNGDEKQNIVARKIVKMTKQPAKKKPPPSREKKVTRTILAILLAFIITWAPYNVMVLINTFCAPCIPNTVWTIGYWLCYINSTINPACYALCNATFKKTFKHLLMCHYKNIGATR

How the values were obtained:
[1] = target: Muscarinic acetylcholine receptor M1 (Homo sapiens, UniProt P11229)
[2] = target: Muscarinic acetylcholine receptor M3 (Homo sapiens, UniProt P20309)
[3] = target: Muscarinic acetylcholine receptor M2 (Homo sapiens, UniProt P08172)

Row | SMILES | Ki [1] [nM] | Ki [2] [nM] | Ki [3] [nM]
1 | NC(=O)C(c1ccccc1)(c1ccccc1)[C@@H]1CCN(CCc2ccc3c(c2)CCO3)C1 [Enablex] | 5.5 | – | –
2 | CC(C)[N+]1(C)[C@@H]2CC[C@H]1CC(OC(=O)[C@@H](CO)c1ccccc1)C2 (some centres undefined) [NSC_3746] | 0.49 | 0.51 | 1.5
